This passage reports red/green cell ratio (normalised) results from PubChem BioAssay AID1345086 (University of Iowa High-Throughput Screening Core (UIHTS), 2018).

The entries are a selection whose mix differs from that of the whole data set. Activity calls are given as the source filed them.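 How the source made its calls: active means compounds killing one labelled cell type while sparing the other, by normalised counts and ratio limits, not self-fluorescent; inactive means the rest.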

The nature of the assay: differential killing of epithelial or mesenchymal cells, primary screen, imaging, PC-3E GFP, TEM4-18 mCherry, co-culture (AID 1345086).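 Further: normalised mesenchymal count divided by normalised epithelial count so high means epithelial killing; cells exposed to compound for 72 h before imaging.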 The note with it: imaging cell counts, at 1 µM, actives lie on both sides, counts scaled to control wells, 1 = unselective.
In the case of `NC(=O)Nc1ccc([As](=O)(O)O)cc1`, the red/green cell ratio (normalised) is inactive: 1.06.

`O=P(O)(O)F`: the red/green cell ratio (normalised) is inactive: 0.95.

In the case of `O=C(O[C@H]1CN2CCC1CC2)C1NCc2ccccc2[C@@H]1c1ccccc1` (stereo partly drawn), the red/green cell ratio (normalised) is inactive: 1.09.
